{"source": "PubChem BioAssay AID493230", "about": "(Broad Institute, 2011)", "test_system": "U2OS VEGF mRNA induction, RT-PCR", "test": "activators raising VEGF transcript levels via HIF – cell-based, U2OS, RT-PCR, dry powder, set 3, orthogonal assay for HIF pathway activator project, dose response (AID 493230)", "method_in_brief": "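Assay system: U2OS osteosarcoma cells / Medium: DMEM without phenol red, 10% FBS / Schedule: 24 h plating, then 24 h compound exposure at 37 °C / Technique: TaqMan RT-PCR, VEGF-A vs beta-actin / Benchmarks: DMSO control / Repeats: duplicates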", "data": [{"smiles": "O=c1[nH]c2ccccc2n1C1CCN(Cc2ccc(O)c3ncccc23)CC1", "values": [{"measurement": "AC40", "result": 0.935, "unit": "µM"}]}]}
